Only a part is listed here, and it is no random draw. Active and inactive are the calls of the source.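 How the source made its calls: active means mean inhibition of the replicates above the hit cutoff set in the primary screen (cut at about 17% in these data); inactive means the rest.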

Sequences of proteins named here, by UniProt entry; tags and fusion partners are left off.
UniProt Q9HAT2, whole entry: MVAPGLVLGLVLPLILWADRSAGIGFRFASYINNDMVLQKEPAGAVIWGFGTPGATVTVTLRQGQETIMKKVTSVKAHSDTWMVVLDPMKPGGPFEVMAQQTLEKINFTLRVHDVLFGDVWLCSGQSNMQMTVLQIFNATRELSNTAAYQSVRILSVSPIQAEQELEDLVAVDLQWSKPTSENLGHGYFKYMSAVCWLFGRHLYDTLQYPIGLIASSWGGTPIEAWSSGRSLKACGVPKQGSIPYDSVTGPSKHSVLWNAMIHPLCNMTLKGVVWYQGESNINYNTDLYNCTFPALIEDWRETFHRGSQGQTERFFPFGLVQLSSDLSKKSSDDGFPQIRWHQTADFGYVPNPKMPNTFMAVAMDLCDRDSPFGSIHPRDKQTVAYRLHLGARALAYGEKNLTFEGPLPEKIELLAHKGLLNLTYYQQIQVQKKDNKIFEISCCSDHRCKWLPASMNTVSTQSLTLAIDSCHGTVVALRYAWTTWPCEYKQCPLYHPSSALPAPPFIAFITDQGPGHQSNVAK

The assay has as its target Sialate O-acetylesterase (Homo sapiens) (UniProt Q9HAT2). Nature of the assay: human SIAE inhibitors, retest, confirmation, biochemical, fluorescence polarization, FP-Rh probe, triplicate (AID 1117263).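 Further: 0% = SIAE with DMSO and probe and 100% = probe without SIAE; inhibitors lower polarization as more probe stays unbound to SIAE.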 Conditions: SIAE FP-Rh activity-based probe, at 9.66 µM, active compounds read high.
Usually inhibition stands for the percentage by which the read-out fell short of the control. Consider `CN1CCCCC1COC(=O)C1(O)c2ccccc2CCc2ccccc21` (stereo not drawn), for which the inhibition is inactive: 2.2%.

On to `CP(=O)(Nc1ccccn1)Oc1ccc(Cl)cc1` (stereo not drawn), for which the inhibition was active: 53%.

As for `CP(=O)(NC(=O)Nc1ccccc1)Oc1ccccc1` (stereo not drawn), the inhibition was active: 74.9%.

The values are drawn from PubChem BioAssay AID1117263 (The Scripps Research Institute Molecular Screening Center, 2014).
